Data from patent publication US9233185B2, “Absorbent article” (UNICHARM CORPORATION, priority 2012, dated 2016).
Read-outs that look alike come from different tables or passages of the source.

Experiment: Water solubility in 100 g of water at 25° C., visual evaluation after 24 hours
Excerpt: The term “solubility” used herein in regard to water solubility includes cases where the sample completely dissolves in deionized water to form a homogeneous mixture, and cases where the sample is completely emulsified. Here, “completely” means that no mass of the sample remains in the deionized water.

[1] = in 100 g of water at 25° C., after 24 hours

Substance	Water solubility [1] [g]	Water solubility
Octadecanoic acid (C18) monoester of butylene glycol [COMPOL BS]	<0.05	–
Isopropyl citrate	–	20< g
Dodecanoic acid (C12) monoester of butylene glycol [COMPOL BL]	<0.05	–
